Laboratory results taken from ChEMBL document CHEMBL3272293, “Use of distribution coefficients in quantitative structure-activity relationships” (J Med Chem, 1977).

Assays:
Type in all cases: physicochemical
Conditions in all cases: octanol/water
[1] = Octanol-aqueous phase distribution coefficient, log D of the compound at pH 6
[2] = Octanol-aqueous phase distribution coefficient, log D of the compound at pH 8
[3] = Octanol-aqueous phase distribution coefficient, log D of the compound at pH 5
[4] = Octanol-aqueous phase distribution coefficient, log D of the compound at pH 7

SMILES: O=[N+]([O-])c1cccc([N+](=O)[O-])c1O
- logD [1]: -1.05
- logD [2]: -3.05
- logD [3]: -0.05
- logD [4]: -2.05
